This test addresses Human A3 receptor (Homo sapiens, UniProt P0DMS8). Briefly: Functional assay on human A3 receptor: forskolin-stimulated cAMP in CHO cells. The test is classed as cell-based. Also on record: expressed in transfected cells; host or cells: CHO cells. The following applies: forskolin 10 μM, example 1 10 μM, Cl-IB-MECA 0.1 μM, Basal 0, Forskolin 100. On the procedure:
CHO cells expressing the human A3 receptor were grown overnight as a monolayer in 24 well tissue culture plates (400 μl/well; 2×10^5 cells/well). cAMP generation was performed in Dulbecco's modified Eagle's medium (DMEM)/N-2-hydroxyethylpiperazin-N-2-ethansulfonic acid (HEPES) buffer (0.60 g HEPES/50 ml DMEM pH 7.4). Each well was washed twice with HEPES/DMEM buffer (250 μl), and the following added: rolipram (50 μM) and cilostamide (50 μM). This was incubated for 30 min at 37° C. followed by the introduction of the compound of example 1 (10 μM) and Cl-IB-MECA (0.1 μM) or DMEM/HEPES. After a further 10 min of incubation, forskolin was added (10 μM). After a subsequent 15 min, incubation was stopped by aspirating the assay medium and by adding 200 μl of ice-cold 0.1M HCl. The amount of cAMP was determined by competition with [3H]cAMP for protein kinase A (PKA). Briefly, the sample, approximately 1.8 nM [3H]cAMP, and 100 μl of PKA solution were incubated on ice for at least 2.5 h. The incubations were stopped by rapid dilution with 2 ml of icecold Tris HCl buffer (pH 7.4), and bound radioactive material was then recovered by filtration through Whatman GF/C filters. Filters were additionally rinsed with 2×2 ml of Tris HCl buffer, and then the radioactivity was counted in Packard Emulsifier Safe scintillation fluid (3.5 mL). All data reflect three independent experiments.

Sequences of proteins named here, by UniProt entry; tags and fusion partners are left off.
UniProt P0DMS8, whole entry: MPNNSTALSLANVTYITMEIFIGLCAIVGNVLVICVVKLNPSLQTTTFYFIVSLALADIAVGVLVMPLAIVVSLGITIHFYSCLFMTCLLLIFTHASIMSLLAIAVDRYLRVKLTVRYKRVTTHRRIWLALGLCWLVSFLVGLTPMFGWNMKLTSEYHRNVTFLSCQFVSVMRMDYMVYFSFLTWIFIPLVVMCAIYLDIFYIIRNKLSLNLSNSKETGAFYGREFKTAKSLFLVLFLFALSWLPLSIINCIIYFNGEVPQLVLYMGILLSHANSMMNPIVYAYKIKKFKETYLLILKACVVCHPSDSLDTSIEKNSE

Turning to `CNC(=O)[C@H]1O[C@@H](n2cnc3c(NCc4cccc(I)c4)nc(Cl)nc32)[C@H](O)[C@@H]1O` [Example 2-Cl-IB-MECA, 2-chloro-N^6 (3-iodobenzyl)-adenosine-5′-N-methyluronamide, reference compound], the cAMP levels reads like this: (n = 1) 23.252; (n = 2) 23.252; (n = 3) 14.006.

The record behind these values is patent US20090093476A1, “PYRROLO[1,2-A]QUINOXALINE DERIVATIVES AS ADENOSINE A3 RECEPTOR MODULATORS AND USES THEREOF” (FAUST PHARMACEUTICALS, priority 2005, published 2009).
